How the values were obtained:
[1] = tested on: Huf (human diploid foreskin cells); assay: Toxicity to Huf host cells (gross cell morphology) in the VZV assay; conditions: 320 μg/ml
[2] = tested on: Varicella-Zoster virus, isolate DM625; assay: Varicella-Zoster Virus (VZV) Plaque Reduction Assay; type: cell-based; conditions: result in words
[3] = tested on: Punta Toro virus, strain Adames; type: cell-based, Punta Toro virus; host Vero cells; conditions: minimum toxic drug concentration / ID50; Vero cells

| SMILES | Host cell toxicity (gross cell morphology) [1] | antiviral activity [2] | TI (therapeutic index) [3] |
| --- | --- | --- | --- |
| Nc1nc2c(ncn2COC(CO)CO)c(=O)[nH]1 [DHPG, 9(1,3-Dihydroxy-2-propoxymethyl)guanine, reference compound] | Slightly toxic | superior | – |
| NC(=O)c1ncn([C@@H]2O[C@H](CO)[C@@H](O)[C@H]2O)n1 [Ribavirin, reference compound] | – | – | 5.0 |
